Molecular target: T1, human TRPA1 (polypeptide of SEQ ID NO:2) (Homo sapiens, UniProt O75762, K186N/R3C/R58T)
T1 construct: expressed in transfected cells; host or cells: CHO-K1 cells, transient transfection of the pcDNA3.1(+) human TRPA1 vector
Assay: Intracellular calcium by FLIPR in CHO-K1 cells expressing human TRPA1 (activator screening)
Format: cell-based

Protein sequences, listed by entry. Tags and fused reporters are not part of them.
UniProt O75762, whole entry R3C/R58T/K186N: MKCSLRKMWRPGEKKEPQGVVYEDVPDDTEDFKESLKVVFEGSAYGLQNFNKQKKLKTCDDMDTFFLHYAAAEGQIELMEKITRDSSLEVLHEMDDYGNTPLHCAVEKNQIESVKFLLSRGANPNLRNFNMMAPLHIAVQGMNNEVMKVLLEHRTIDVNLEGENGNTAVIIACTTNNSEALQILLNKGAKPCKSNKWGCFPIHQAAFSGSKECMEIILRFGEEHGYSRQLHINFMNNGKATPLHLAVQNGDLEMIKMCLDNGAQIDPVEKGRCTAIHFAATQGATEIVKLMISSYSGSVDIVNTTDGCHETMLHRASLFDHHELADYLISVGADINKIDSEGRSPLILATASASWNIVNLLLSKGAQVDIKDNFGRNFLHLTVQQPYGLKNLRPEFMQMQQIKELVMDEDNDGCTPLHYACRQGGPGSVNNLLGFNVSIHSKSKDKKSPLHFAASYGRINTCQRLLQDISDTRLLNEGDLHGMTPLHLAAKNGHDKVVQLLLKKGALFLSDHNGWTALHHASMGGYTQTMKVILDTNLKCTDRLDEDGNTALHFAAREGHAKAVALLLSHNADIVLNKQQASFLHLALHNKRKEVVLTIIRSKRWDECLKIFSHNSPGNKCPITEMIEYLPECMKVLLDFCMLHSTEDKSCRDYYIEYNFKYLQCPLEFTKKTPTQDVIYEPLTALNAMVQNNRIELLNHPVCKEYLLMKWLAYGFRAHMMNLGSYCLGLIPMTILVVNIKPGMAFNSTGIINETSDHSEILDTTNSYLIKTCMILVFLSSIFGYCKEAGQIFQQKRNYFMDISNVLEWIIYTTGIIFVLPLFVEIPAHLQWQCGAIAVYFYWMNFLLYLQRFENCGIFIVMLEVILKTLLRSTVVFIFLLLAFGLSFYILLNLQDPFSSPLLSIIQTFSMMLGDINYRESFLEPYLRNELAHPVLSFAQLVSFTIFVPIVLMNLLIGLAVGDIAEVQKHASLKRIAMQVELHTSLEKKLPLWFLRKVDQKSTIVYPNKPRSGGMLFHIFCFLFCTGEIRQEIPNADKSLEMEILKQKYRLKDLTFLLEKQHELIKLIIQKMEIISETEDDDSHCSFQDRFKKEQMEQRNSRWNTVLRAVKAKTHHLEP

In the case of `O=C/C=C/c1ccccc1` [cinnamic aldehyde], the EC50 is reported as 22.5 µM and the “change in intracellular calcium concentration” value (CHO-K1 cells expressing human TRPA1, FLIPR, Fluo3-AM) is reported as “responded specifically (elevation of intracellular calcium concentration)”.

From US8034574B2, “Screening method for prokinetic agent” (Astellas Pharma Inc., priority 2006, dated 2011)
